These results are taken from US10919903B2.

The chains behind the UniProt entries cited, without tags or fusion partners. Residues count along the entry.
UniProt Q96RI1, whole entry: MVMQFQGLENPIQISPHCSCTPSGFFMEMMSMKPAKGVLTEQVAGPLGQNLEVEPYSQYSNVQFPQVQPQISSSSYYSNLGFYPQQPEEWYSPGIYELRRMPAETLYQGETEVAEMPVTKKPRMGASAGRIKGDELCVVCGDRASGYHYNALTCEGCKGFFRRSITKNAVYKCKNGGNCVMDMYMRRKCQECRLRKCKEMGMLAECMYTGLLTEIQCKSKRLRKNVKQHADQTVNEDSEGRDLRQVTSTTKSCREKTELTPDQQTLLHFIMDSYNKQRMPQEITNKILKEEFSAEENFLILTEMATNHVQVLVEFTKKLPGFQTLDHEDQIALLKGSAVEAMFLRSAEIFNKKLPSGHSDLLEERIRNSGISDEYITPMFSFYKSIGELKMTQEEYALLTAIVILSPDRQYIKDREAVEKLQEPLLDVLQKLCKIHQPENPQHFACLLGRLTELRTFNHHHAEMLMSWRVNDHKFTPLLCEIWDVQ
UniProt Q96RI1, 262-486 limits assumed: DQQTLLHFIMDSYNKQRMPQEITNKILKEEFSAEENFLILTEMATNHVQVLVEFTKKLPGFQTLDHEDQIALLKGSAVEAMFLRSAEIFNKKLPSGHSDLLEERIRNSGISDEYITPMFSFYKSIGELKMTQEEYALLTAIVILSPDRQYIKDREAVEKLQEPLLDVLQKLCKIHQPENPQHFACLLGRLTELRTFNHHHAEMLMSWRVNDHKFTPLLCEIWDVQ

For one experiment, the target named is FXR (Homo sapiens, UniProt Q96RI1). As to the kind of experiment: FXR Transactivation Assay (GAL4 luciferase reporter, pBIND-FXR in HEK293T). The experiment is classed as cell-based. As to conditions: read-out: FXR Transactivation Assay (EC50), HEK293T cells. Background: In a reporter assay the amount or activity of a reporter protein is the signal.
The target of a further experiment is FXR-LBD (Homo sapiens, UniProt Q96RI1). As to the kind of experiment: FXR Coactivator Assay (LanthaScreen TR-FRET). The format is biochemical. To be noted: read-out: FXR Coactivator Assay (EC50).

`Cc1cc2nc(N3CCN(Cc4c(-c5c(Cl)cccc5Cl)noc4C4CC4)C[C@H]3C)sc2cc1C(=O)O`: the EC50 (as a rule, the midpoint of the concentration-response curve) on FXR was 101 to 400 nM.

For `C[C@@H]1CN(Cc2c(-c3c(Cl)cccc3Cl)noc2C2CC2)CCN1c1nc2c(C(F)(F)F)cc(C(=O)O)cc2s1`, the EC50 on FXR was 10 to 100 nM. Same read-out and setting: the same measure for `C[C@@H]1CN(Cc2c(-c3c(Cl)cccc3Cl)noc2C2CC2)CCN1c1nc2cc(F)c(C(=O)O)cc2s1`: 10 to 100 nM; for `Cc1cc(C(=O)O)cc2sc(N3CCN(Cc4c(-c5c(Cl)cccc5Cl)noc4C4CC4)CC3)nc12`: 10 to 100 nM. Still for that read-out and setting: the same measure for `CC(C)c1onc(-c2c(Cl)cccc2Cl)c1CN1CCN(c2nc3ccc(C(=O)O)cc3s2)CC1`: 101 to 400 nM.

With `COc1cc(C(=O)O)cc2sc(N3C[C@H](C)N(Cc4c(-c5c(Cl)cccc5Cl)noc4C(C)C)C[C@H]3C)nc12`, the EC50 on FXR-LBD and at FXR was 10 to 100 nM throughout. As to `COc1cc(C(=O)O)cc2sc(N3CCN(Cc4c(-c5c(Cl)cccc5Cl)noc4C(C)C)CCC3C)nc12` (centres unmarked), the EC50 on FXR was in the range of 401 to 5000 nM. For the compound `C[C@@H]1CN(Cc2c(-c3ccccc3OC(F)(F)F)noc2C2CC2)CCN1c1nc2c(Cl)cc(C(=O)O)cc2s1`, the EC50 at FXR-LBD was 10 to 100 nM. As for `COc1cc(C(=O)O)cc2sc(N3C[C@H](C)N(Cc4c(-c5c(Cl)cccc5Cl)noc4C4CC4)C[C@H]3C)nc12`, at FXR, the EC50 lay in the range of 10 to 100 nM. The same measure, in the same setting: the same measure for `C[C@@H]1CN(c2nc3ccc(C(=O)O)cc3s2)CCN1Cc1c(-c2c(Cl)cccc2Cl)noc1C1CC1`: 401 to 5000 nM; for `C[C@@H]1CN(c2nc3c(F)cc(C(=O)O)cc3s2)[C@@H](C)CN1Cc1c(-c2c(Cl)cccc2Cl)noc1C1CC1`: 401 to 5000 nM. Turning to `COc1cc(C(=O)O)cc2sc(N3CCN(Cc4c(-c5c(Cl)cccc5Cl)noc4C4CC4)CC3)nc12`, the EC50 at FXR-LBD and at FXR was 10 to 100 nM throughout.

On to `COc1cc(C(=O)O)cc2sc(N3CCN(Cc4c(-c5c(Cl)cccc5Cl)noc4C4CC4)CC3C)nc12` (centres unmarked), for which the EC50 on FXR-LBD and on FXR was 10 to 100 nM each time. As to `Cc1cc(C(=O)O)cc2sc(N3CCN(Cc4c(C(C)C)cnn4-c4c(Cl)cccc4Cl)CC3)nc12`, at FXR, the EC50 was 101 to 400 nM. Still for that read-out and setting: the same measure for `Cc1cc(C(=O)O)cc2sc(N3C[C@@H](C)N(Cc4c(-c5c(Cl)cccc5Cl)noc4C4CC4)C[C@H]3C)nc12`: 401 to 5000 nM; for `C[C@@H]1CN(c2nc3c(F)cc(C(=O)O)cc3s2)CCN1Cc1c(-c2c(Cl)cccc2Cl)noc1C1CC1`: 101 to 400 nM. Turning to `COc1cc(C(=O)O)cc2sc(N3CCN(Cc4c(-c5ccccc5OC(F)(F)F)noc4C(C)C)CC3)nc12`, the EC50 on FXR-LBD and at FXR was 10 to 100 nM in each case. As to `O=C(O)c1ccc2nc(N3CCN(Cc4c(-c5c(Cl)cccc5Cl)noc4C4CC4)CC3)sc2c1`, on FXR, the EC50 lay in the range of 401 to 5000 nM. The same measure, in the same setting: under `Cc1cc(C(=O)O)cc2sc(N3C[C@H](C)N(Cc4c(-c5c(Cl)cccc5Cl)noc4C4CC4)C[C@H]3C)nc12` stands 10 to 100 nM; under `C[C@H]1CN(Cc2c(-c3c(Cl)cccc3Cl)noc2C2CC2)CCN1c1nc2ccc(C(=O)O)cc2s1`, 401 to 5000 nM. The same measure, in the same setting: under `C[C@@H]1CN(Cc2c(-c3c(Cl)cccc3Cl)noc2C2CC2)CCN1c1nc2ccc(C(=O)O)cc2s1` stands 10 to 100 nM; under `C[C@@H]1CN(Cc2c(-c3c(Cl)cccc3Cl)noc2C2CC2)[C@@H](C)CN1c1nc2c(F)cc(C(=O)O)cc2s1`, 10 to 100 nM. For `COc1cc(C(=O)O)cc2sc(N3CCN(Cc4c(-c5c(Cl)cccc5Cl)noc4C(C)C)[C@@H](C)C3)nc12`, the results for the EC50 on FXR-LBD and on FXR were 10 to 100 nM and 101 to 400 nM, respectively. For the compound `CC(C)c1cnn(-c2c(Cl)cccc2Cl)c1CN1CCN(c2nc3c(F)cc(C(=O)O)cc3s2)CC1`, the EC50 at FXR fell in the range of 101 to 400 nM. As for `C[C@@H]1CN(Cc2c(-c3c(Cl)cccc3Cl)noc2C2CC2)CCN1c1nc2c(Cl)cc(C(=O)O)cc2s1`, the EC50 at FXR was in the range of 10 to 100 nM. Same read-out and setting: under `COc1cc(C(N)=O)cc2sc(N3CCN(Cc4c(-c5c(Cl)cccc5Cl)noc4C4CC4)[C@@H](C)C3)nc12` stands 401 to 5000 nM.

Take `COc1cc(C(N)=O)cc2sc(N3CCN(Cc4c(-c5c(Cl)cccc5Cl)noc4C4CC4)C[C@H]3C)nc12`: the EC50 on FXR-LBD and at FXR was 10 to 100 nM throughout. On to `COc1cc(C(=O)O)cc2sc(N3CCN(Cc4c(-c5c(Cl)cccc5Cl)noc4C(C)C)CC3)nc12`, for which the EC50 on FXR-LBD was 10 to 100 nM; at FXR, 101 to 400 nM. The matching figures for `Cc1cc(C(=O)O)cc2sc(N3CCN(Cc4c(-c5c(Cl)cccc5Cl)noc4C(C)C)CC3)nc12`: 10 to 100 nM and 10 to 100 nM. `Cc1cc(C(=O)O)cc2sc(N3CCN(Cc4c(-c5c(Cl)cccc5Cl)noc4C4CC4)C[C@H]3C)nc12`: the EC50 on FXR is 10 to 100 nM.

Consider `C[C@H]1CN(c2nc3ccc(C(=O)O)cc3s2)CCN1Cc1c(-c2c(Cl)cccc2Cl)noc1C1CC1`, for which, at FXR, the EC50 fell in the range of 401 to 5000 nM. `O=C(O)c1cc(F)c2nc(N3CCN(Cc4c(-c5c(Cl)cccc5Cl)noc4C4CC4)CC3)sc2c1`: the EC50 on FXR lay in the range of 10 to 100 nM. Still for that read-out and setting: the same measure for `COc1cc(C(=O)O)cc2sc(N3C4CCCC3CN(Cc3c(-c5c(Cl)cccc5Cl)noc3C3CC3)C4)nc12`: 401 to 5000 nM; for `COc1cc(C(=O)O)cc2sc(N3CCN(Cc4c(-c5ccccc5OC(F)(F)F)noc4C4CC4)CC3)nc12`: 10 to 100 nM. For the compound `COc1cc(C(=O)O)cc2sc(N3CCN(Cc4c(-c5c(Cl)cccc5Cl)noc4C4CC4)CCC3C)nc12` (centres unmarked), the EC50 at FXR-LBD was 10 to 100 nM; at FXR, 101 to 400 nM. `C[C@H]1CN(Cc2c(-c3c(Cl)cccc3Cl)noc2C2CC2)CCN1c1nc2c(F)cc(C(=O)O)cc2s1`: the EC50 at FXR lay within 401 to 5000 nM. Same read-out and setting: under `COc1cc(C(=O)O)cc2sc(N3C[C@H](C)N(Cc4c(-c5c(Cl)cccc5Cl)noc4C(C)C)C[C@@H]3C)nc12` stands 401 to 5000 nM; under `Cc1cc(C(=O)O)cc2sc(N3CCN(Cc4c(-c5c(Cl)cccc5Cl)noc4C4CC4)[C@H](C)C3)nc12`, 101 to 400 nM. Same read-out and setting: under `C[C@H]1CN(c2nc3c(F)cc(C(=O)O)cc3s2)CCN1Cc1c(-c2c(Cl)cccc2Cl)noc1C1CC1` stands 101 to 400 nM; under `COc1cc(C(=O)O)cc2sc(N3C[C@@H](C)N(Cc4c(-c5c(Cl)cccc5Cl)noc4C4CC4)C[C@H]3C)nc12`, 401 to 5000 nM; under `C[C@@H]1CN(Cc2c(-c3c(Cl)cccc3Cl)noc2C2CC2)[C@@H](C)CN1c1nc2ccc(C(=O)O)cc2s1`, 10 to 100 nM. `Cn1c(N2CCN(Cc3c(-c4c(Cl)cccc4Cl)noc3C3CC3)CC2)nc2cc(C(=O)O)ccc21`: at FXR-LBD, the EC50 fell in the range of 401 to 5000 nM.

`COc1cc(C(=O)O)cc2sc(N3C[C@@H](C)N(Cc4c(-c5c(Cl)cccc5Cl)noc4C(C)C)C[C@@H]3C)nc12`: the EC50 on FXR-LBD lay in the range of 10 to 100 nM; on FXR, 101 to 400 nM.

Consider `C[C@@H]1CN(c2nc3c(F)cc(C(=O)O)cc3s2)[C@H](C)CN1Cc1c(-c2c(Cl)cccc2Cl)noc1C1CC1`, for which the EC50 at FXR was in the range of 401 to 5000 nM. With `COc1cc(C(N)=O)cc2sc(N3CCN(Cc4c(-c5c(Cl)cccc5Cl)noc4C4CC4)[C@H](C)C3)nc12`, the EC50 at FXR lay in the range of 10 to 100 nM. Still for that read-out and setting: the same measure for `Cc1cc(C(=O)O)cc2sc(N3CCN(Cc4c(-c5c(Cl)cccc5Cl)noc4C4CC4)C[C@@H]3C)nc12`: 401 to 5000 nM. Regarding `CC(C)c1onc(-c2c(Cl)cccc2Cl)c1CN1CCN(c2cc3cc(C(=O)O)ccc3n2C)CC1`, the EC50 at FXR-LBD lay in the range of 10 to 100 nM. Take `COc1cc(C(=O)O)cc2sc(N3CC4CCC(C3)N4Cc3c(-c4c(Cl)cccc4Cl)noc3C3CC3)nc12`: on FXR, the EC50 lay within 101 to 400 nM. Regarding `COc1cc(C(=O)O)cc2sc(N3CCC(Cc4c(-c5c(Cl)cccc5Cl)noc4C4CC4)C[C@@H]3C)nc12` (some centres unmarked), the concentration for a half-maximal effect (EC50) on FXR-LBD lay within 10 to 100 nM. As for `COc1cc(C(=O)O)cc2sc(N3CCN(Cc4c(-c5c(Cl)cccc5Cl)noc4C4CC4)[C@H](C)C3)nc12`, at FXR, the EC50 is 10 to 100 nM. As for `CC(C)c1onc(-c2c(Cl)cccc2Cl)c1CN1CCN(c2nc3c(F)cc(C(=O)O)cc3s2)CC1`, the figures for the EC50 at FXR-LBD and at FXR were 10 to 100 nM and 101 to 400 nM, respectively. `COc1cc(C(=O)O)cc2sc(N3CCN(Cc4c(-c5c(Cl)cncc5Cl)noc4C(C)C)CC3)nc12`: the EC50 at FXR-LBD lay in the range of 10 to 100 nM; on FXR it was 101 to 400 nM. For `C[C@@H]1CN(Cc2c(-c3c(Cl)cccc3Cl)noc2C2CC2)CCN1c1nc2c(F)cc(C(=O)O)cc2s1`, the EC50 at FXR-LBD and at FXR was 10 to 100 nM in each case.

With `COc1cc(C(N)=O)cc2sc(N3C[C@H](C)N(Cc4c(-c5c(Cl)cccc5Cl)noc4C4CC4)C[C@H]3C)nc12`, the EC50 at FXR was in the range of 101 to 400 nM. Still for that read-out and setting: the same measure for `Cc1cc(C(=O)O)cc2sc(N3CCN(Cc4c(-c5c(Cl)cccc5Cl)noc4C4CC4)[C@@H](C)C3)nc12`: 401 to 5000 nM.

On to `COc1cc(C(=O)O)cc2sc(C3CCN(Cc4c(-c5c(Cl)cccc5Cl)noc4C(C)C)C3)nc12` (centres unmarked), for which, on FXR-LBD, the EC50 lay in the range of 101 to 400 nM. As to `COc1cc(C(=O)O)cc2sc(N3CCN(Cc4c(-c5c(Cl)cccc5Cl)noc4C(C)C)[C@H](C)C3)nc12`, the EC50 on FXR-LBD and at FXR was 10 to 100 nM in each case.
